Measured values as given in paper PMC7765948, “Spadin Modulates Astrocytic Passive Conductance via Inhibition of TWIK-1/TREK-1 Heterodimeric Channels” (International Journal of Molecular Sciences, 2020).

Assays:
[1] = test system: K^+ currents in cultured astrocytes; assay: Whole-cell patch clamp of K+ currents (ramp −150 to +50 mV) in cultured astrocytes; assay type: cell-based, mouse (C57BL/6)
Description: Primary cortical astrocytes were prepared from one day-old male and female C57BL/6 mouse pups culture astrocytes, P1 C57BL/6 J mouse pups. The cerebral cortex was dissected free of adherent meninges, minced and dissociated into single-cell suspension by trituration through a pipette. All experimental procedures described were performed in accordance with the guidelines of Korea University (Seoul, Korea). Dissociated cells were plated onto either 12 mm glass coverslips or six-well plates coated with 0.1 mg/mL Poly-D-Lysine (PDL). Cells were grown in Dulbecco’s modified Eagle’s medium (DMEM, ThermoFisher, Waltham MA, USA) supplemented with 10% heat-inactivated fetal bovine serum, 10% heat-inactivated horse serum, and penicillin–streptomycin. Cultures were maintained at 37 °C in a humidified 5% CO2 incubator. On the third day of culture, cells were washed by repeated pipetting and the media was replaced to remove debris and other floating cells. On the next day (fourth day of culture), the cells were replaced onto glass coverslips (1 × 104 per coverslip) coated with 0.1 mg/mL PDL. […]
Cultured astrocytes were plated onto coverslips for electrophysiological experiments. […] Whole-cell currents were recorded using a patch clamp amplifier (Axopatch 700B, Axon Instruments, Union City, CA, USA). Current–voltage relations were measured by applying ramped pulses (from −150 mV to +50 mV over 1000-ms) from a holding potential of −60 mV. […] Currents were analyzed with Clampfit software (Axon Instruments, Union City, CA, USA). […] Whole-cell currents were recorded after 2 min when spadin-contained bath solutions were exchanged. […]
(§1) All data are presented as means ± standard error of the mean (s.e.m). The significance of data for comparison was assessed by Student’s t-test (paired t-test) or one-way ANOVA followed by Turkey’s post hoc test, and significance levels are given as: n.s: not significant, * p < 0.05, ** p < 0.01, *** p < 0.001, and **** p < 0.0001. […]

TREK-1 = assay: Whole-cell currents in COS-7 cells expressing TREK-1; assay type: cell-based, mouse; settings: +50 mV, 10 µM spadin, bath pH 7.4, 20–22 °C
Description: cDNAs encoding for full-length mouse TREK-1 (GenBank accession no. NM_010607) and mouse TWIK-1 (NM_008430) were obtained by using an RT–PCR based gateway cloning (ThermoFisher, Waltham, MA, USA). TWIK-1 K274E mutant was generated using full-length cDNA as templates via the EZchange site-directed mutagenesis kit (Enzynomics, Daejeon, Korea). All constructs were cloned into pDEST-IRES2-GFP vectors by gateway cloning. […]
Current–voltage (I–V) curves were recorded from COS-7 cells expressing TWIK-1 K274E, TREK-1 or concatenated TWIK-1-TREK-1-IRES2-GFP. […] The I–V relations were measured by applying 1-s ramp pulses (from −150 mV to +50 mV) from a holding potential of −60 mV. […] Currents were analyzed with Clampfit software (Axon instruments, Union City, CA, USA). […]
as §1

TRAAK = settings: cited from earlier work
Excerpt: (§2) It has been reported that spadin is highly specific for the TREK-1 channel, and that other TREK family members, such as TREK-2 and TRAAK homodimer channels, are not sensitive to spadin [36, 37]. […] Therefore, we proposed two possibilities to explain how the TWIK-1 channel is affected by spadin in astrocytes. First, the TWIK-1 channel may be regulated by spadin in a direct manner, similar to the TREK-1 channel. […] The activity of TWIK-1 homodimeric channels was not modulated by spadin, but concatenated TWIK-1-TREK-1 heterodimeric channels were inhibited (Figure 5). Since K2P heterodimeric channels are known to be regulated by regulators specific only for single subunit isoforms, even if the TWIK ...

[2] = test system: TREK-1/TREK-2 heterodimeric channels; settings: cited from earlier work
Excerpt: as §2

TREK-2 = settings: cited from earlier work
Excerpt: as §2

SMILES: CC[C@H](C)[C@H](NC(=O)[C@@H]1CCCN1C(=O)CNC(=O)[C@H](CO)NC(=O)[C@H](Cc1c[nH]c2ccccc12)NC(=O)[C@H](CCCNC(=N)N)NC(=O)[C@@H]1CCCN1C(=O)[C@H](CC(C)C)NC(=O)[C@@H]1CCCN1C(=O)[C@H](C)NC(=O)[C@@H](N)Cc1ccc(O)cc1)C(=O)NCC(=O)N[C@H](C(=O)N[C@@H](CO)C(=O)N[C@@H](Cc1c[nH]c2ccccc12)C(=O)NCC(=O)N[C@@H](CC(C)C)C(=O)N[C@@H](CCCNC(=N)N)C(=O)O)C(C)C [spadin]
- outward and inward currents of astrocytes ([1]; cultured astrocytes, series of spadin concentrations, +50 mV and −150 mV): gradually reduced as spadin concentration increased
- reversal membrane potential (RMP) after treatment ([1]; cultured astrocytes, before treatment –78.4 ± 1.7 mV, concentration dependent, mean ± s.e.m.): −69.9 ± 2.3 mV
- IC50 ([1]; cultured mouse cortical astrocytes, outward currents at +50 mV, ramp from −150 to +50 mV, Hill fit, bath pH 7.4, 20–22 °C, recorded 2 min after solution exchange, read-out: IC50 on astrocytic conductance): 54.6 nM
- inhibition of TREK-1-mediated K^+ conductance (TREK-1): about 50%
- sensitivity of TRAAK homodimer channels (TRAAK): not sensitive
- effect on TRAAK (TRAAK; heterologous systems): does not affect
- acid-induced activity of TREK-1/TREK-2 tandem heterodimeric channels ([2]; acid-induced): reduces acid-induced activity
- inhibition of TREK-1/TREK-2 heterodimeric channels [2]: can also inhibit
- sensitivity of TREK-2 homodimer channels (TREK-2): not sensitive
- effect on TREK-2 (TREK-2; heterologous systems): does not affect
